This series is described as follows: in vivo. The conditions noted are these: rat, po.

As for `OC[C@H]1O[C@@H](S[C@@H]2O[C@H](CO)[C@H](O)[C@H](n3cc(-c4cccc(F)c4)nn3)[C@H]2O)[C@H](O)[C@@H](n2cc(-c3cccc(F)c3)nn2)[C@H]1O` [OLITIGALTIN], the bioavailability (commonly the share of a dose that reaches the circulation, judged against a reference dose that is usually intravenous) is < 1%.
